CycPeptMPDB entries from one study

Collected by the curators of CycPeptMPDB (Li et al. 2023) from Kelly et al. 2021, doi:10.1021/jacs.0c06115.

PAMPA is the parallel artificial membrane permeability assay, which has no cells and reads passive diffusion.
P is given in units of 10^-6 cm/s (from log10 values with two decimals); larger means faster passage.

The entry for CC(=O)N1CCC[C@@H]1C(=O)N(C)[C@@H](CC(C)C)C(=O)N[C@@H]1C(=O)N[C@H](CC(C)C)C(=O)N(C)[C@H](CC(C)C)C(=O)N[C@@H](CC(C)C)C(=O)N(C)[C@@H](C)C(=O)N[C@H](CC(C)C)C(=O)N2CCC[C@H]2C(=O)O[C@@H]1C lists PAMPA 6.3 × 10^-6 cm/s. CC(=O)N1CCC[C@@H]1C(=O)N(C)[C@@H](CC(C)C)C(=O)N[C@@H]1C(=O)N[C@@H](CC(C)C)C(=O)N(C)[C@H](CC(C)C)C(=O)N(C)[C@H](CC(C)C)C(=O)N(C)[C@H](C)C(=O)N[C@H](CC(C)C)C(=O)N2CCC[C@H]2C(=O)O[C@@H]1C is reported with PAMPA 2.6 × 10^-6 cm/s. The entry for CC(=O)N1CCC[C@H]1C(=O)N(C)[C@@H](CC(C)C)C(=O)N[C@@H]1C(=O)N[C@H](CC(C)C)C(=O)N[C@@H](CC(C)C)C(=O)N(C)[C@H](CC(C)C)C(=O)N(C)[C@@H](C)C(=O)N[C@H](CC(C)C)C(=O)N2CCC[C@H]2C(=O)O[C@@H]1C lists PAMPA 5.6 × 10^-6 cm/s. CC(=O)N1CCC[C@H]1C(=O)N(C)[C@@H](CC(C)C)C(=O)N[C@@H]1C(=O)N[C@H](CC(C)C)C(=O)N(C)[C@@H](CC(C)C)C(=O)N[C@@H](CC(C)C)C(=O)N(C)[C@H](C)C(=O)N[C@@H](CC(C)C)C(=O)N2CCC[C@H]2C(=O)O[C@@H]1C has PAMPA 1.7 × 10^-6 cm/s.

Listed for CC(=O)N[C@@H]1C(=O)N2CCC[C@H]2C(=O)N(C)[C@H](CC(C)C)C(=O)N(C)[C@@H](CC(C)C)C(=O)N(C)[C@@H](CC(C)C)C(=O)N(C)[C@H](CC(C)C)C(=O)N(C)[C@H](C)C(=O)N[C@@H](CC(C)C)C(=O)N2CCC[C@@H]2C(=O)O[C@@H]1C: PAMPA 7.9 × 10^-6 cm/s. For CC(=O)N[C@@H]1C(=O)N2CCC[C@H]2C(=O)N(C)[C@H](CC(C)C)C(=O)N[C@@H](CC(C)C)C(=O)N[C@@H](CC(C)C)C(=O)N[C@H](CC(C)C)C(=O)N[C@H](C)C(=O)N[C@@H](CC(C)C)C(=O)N2CCC[C@@H]2C(=O)O[C@@H]1C the data give PAMPA 0.076 × 10^-6 cm/s. CC(=O)N1CCC[C@@H]1C(=O)N(C)[C@@H](CC(C)C)C(=O)N[C@@H]1C(=O)N(C)[C@@H](CC(C)C)C(=O)N(C)[C@H](CC(C)C)C(=O)N[C@@H](CC(C)C)C(=O)N(C)[C@H](C)C(=O)N[C@@H](CC(C)C)C(=O)N2CCC[C@H]2C(=O)O[C@@H]1C is reported with PAMPA 1.3 × 10^-6 cm/s. Listed for CC(=O)N1CCC[C@H]1C(=O)N[C@@H]1C(=O)N[C@H](CC(C)C)C(=O)N[C@H](CC(C)C)C(=O)N[C@@H](CC(C)C)C(=O)N[C@@H](CC(C)C)C(=O)N[C@H](C)C(=O)N[C@@H](CC(C)C)C(=O)N2CCC[C@@H]2C(=O)O[C@@H]1C: PAMPA 0.26 × 10^-6 cm/s.

The entry for CC(=O)N1CCC[C@H]1C(=O)N(C)[C@@H](CC(C)C)C(=O)N[C@@H]1C(=O)N(C)[C@@H](CC(C)C)C(=O)N(C)[C@@H](CC(C)C)C(=O)N[C@@H](CC(C)C)C(=O)N(C)[C@@H](C)C(=O)N[C@@H](CC(C)C)C(=O)N2CCC[C@H]2C(=O)O[C@@H]1C lists PAMPA 0.71 × 10^-6 cm/s. CC(=O)N1CCC[C@H]1C(=O)N[C@@H]1C(=O)N[C@H](CC(C)C)C(=O)N(C)[C@H](CC(C)C)C(=O)N[C@@H](CC(C)C)C(=O)N(C)[C@H](CC(C)C)C(=O)N[C@@H](C)C(=O)N[C@@H](CC(C)C)C(=O)N2CCC[C@@H]2C(=O)O[C@@H]1C has PAMPA 6.6 × 10^-6 cm/s. CC(=O)N1CCC[C@H]1C(=O)N(C)[C@@H](CC(C)C)C(=O)N[C@@H]1C(=O)N[C@H](CC(C)C)C(=O)N[C@@H](CC(C)C)C(=O)N(C)[C@@H](CC(C)C)C(=O)N(C)[C@H](C)C(=O)N[C@H](CC(C)C)C(=O)N2CCC[C@H]2C(=O)O[C@@H]1C has PAMPA 1.7 × 10^-6 cm/s. CC(=O)N1CCC[C@H]1C(=O)N(C)[C@@H](CC(C)C)C(=O)N[C@@H]1C(=O)N(C)[C@H](CC(C)C)C(=O)N(C)[C@@H](CC(C)C)C(=O)N[C@@H](CC(C)C)C(=O)N(C)[C@H](C)C(=O)N[C@H](CC(C)C)C(=O)N2CCC[C@@H]2C(=O)O[C@@H]1C has PAMPA 1 × 10^-6 cm/s.

Listed for CC(=O)N1CCC[C@H]1C(=O)N(C)[C@@H](CC(C)C)C(=O)N[C@@H]1C(=O)N(C)[C@H](CC(C)C)C(=O)N[C@@H](CC(C)C)C(=O)N(C)[C@H](CC(C)C)C(=O)N(C)[C@H](C)C(=O)N[C@H](CC(C)C)C(=O)N2CCC[C@H]2C(=O)O[C@@H]1C: PAMPA 2.1 × 10^-6 cm/s. CC(=O)N1CCC[C@H]1C(=O)N(C)[C@H](CC(C)C)C(=O)N[C@@H]1C(=O)N[C@@H](CC(C)C)C(=O)N[C@H](CC(C)C)C(=O)N[C@H](CC(C)C)C(=O)N(C)[C@H](C)C(=O)N[C@H](CC(C)C)C(=O)N2CCC[C@@H]2C(=O)O[C@@H]1C has PAMPA 0.19 × 10^-6 cm/s. For CC(=O)N1CCC[C@H]1C(=O)N(C)[C@@H](CC(C)C)C(=O)N[C@@H]1C(=O)N(C)[C@@H](CC(C)C)C(=O)N(C)[C@@H](CC(C)C)C(=O)N[C@H](CC(C)C)C(=O)N[C@H](C)C(=O)N[C@H](CC(C)C)C(=O)N2CCC[C@H]2C(=O)O[C@@H]1C the data give PAMPA 0.31 × 10^-6 cm/s. Listed for CC(=O)N1CCC[C@@H]1C(=O)N(C)[C@@H](CC(C)C)C(=O)N[C@@H]1C(=O)N[C@@H](CC(C)C)C(=O)N(C)[C@@H](CC(C)C)C(=O)N(C)[C@H](CC(C)C)C(=O)N[C@@H](C)C(=O)N[C@@H](CC(C)C)C(=O)N2CCC[C@H]2C(=O)O[C@@H]1C: PAMPA 0.21 × 10^-6 cm/s.

The entry for CC(=O)N1CCC[C@H]1C(=O)N(C)[C@@H](CC(C)C)C(=O)N[C@@H]1C(=O)N(C)[C@@H](CC(C)C)C(=O)N(C)[C@H](CC(C)C)C(=O)N[C@H](CC(C)C)C(=O)N(C)[C@@H](C)C(=O)N[C@@H](CC(C)C)C(=O)N2CCC[C@H]2C(=O)O[C@@H]1C lists PAMPA 0.95 × 10^-6 cm/s. For CC(=O)N1CCC[C@@H]1C(=O)N(C)[C@H](CC(C)C)C(=O)N[C@@H]1C(=O)N[C@H](CC(C)C)C(=O)N[C@@H](CC(C)C)C(=O)N(C)[C@@H](CC(C)C)C(=O)N(C)[C@H](C)C(=O)N[C@@H](CC(C)C)C(=O)N2CCC[C@H]2C(=O)O[C@@H]1C the data give PAMPA 2 × 10^-6 cm/s. The entry for CC(=O)N1CCC[C@@H]1C(=O)N(C)[C@@H](CC(C)C)C(=O)N[C@@H]1C(=O)N[C@@H](CC(C)C)C(=O)N(C)[C@H](CC(C)C)C(=O)N[C@H](CC(C)C)C(=O)N[C@H](C)C(=O)N[C@@H](CC(C)C)C(=O)N2CCC[C@@H]2C(=O)O[C@@H]1C lists PAMPA 2.5 × 10^-6 cm/s. For CC(=O)N1CCC[C@@H]1C(=O)N(C)[C@@H](CC(C)C)C(=O)N[C@@H]1C(=O)N(C)[C@H](CC(C)C)C(=O)N(C)[C@@H](CC(C)C)C(=O)N(C)[C@H](CC(C)C)C(=O)N[C@@H](C)C(=O)N[C@@H](CC(C)C)C(=O)N2CCC[C@@H]2C(=O)O[C@@H]1C the data give PAMPA 7.2 × 10^-6 cm/s.

The entry for CC(=O)N1CCC[C@H]1C(=O)N[C@@H]1C(=O)N[C@H](CC(C)C)C(=O)N(C)[C@H](CC(C)C)C(=O)N[C@H](CC(C)C)C(=O)N(C)[C@@H](CC(C)C)C(=O)N[C@@H](C)C(=O)N[C@@H](CC(C)C)C(=O)N2CCC[C@@H]2C(=O)O[C@@H]1C lists PAMPA 5.9 × 10^-6 cm/s. For CC(=O)N1CCC[C@@H]1C(=O)N(C)[C@H](CC(C)C)C(=O)N[C@@H]1C(=O)N[C@@H](CC(C)C)C(=O)N(C)[C@H](CC(C)C)C(=O)N(C)[C@@H](CC(C)C)C(=O)N(C)[C@@H](C)C(=O)N[C@H](CC(C)C)C(=O)N2CCC[C@H]2C(=O)O[C@@H]1C the data give PAMPA 1.3 × 10^-6 cm/s. CC(=O)N1CCC[C@H]1C(=O)N[C@@H]1C(=O)N[C@H](CC(C)C)C(=O)N(C)[C@@H](CC(C)C)C(=O)N[C@@H](CC(C)C)C(=O)N[C@@H](CC(C)C)C(=O)N(C)[C@H](C)C(=O)N[C@@H](CC(C)C)C(=O)N2CCC[C@@H]2C(=O)O[C@@H]1C has PAMPA 1.9 × 10^-6 cm/s.

Repeated from above, the 2 entries with the highest PAMPA:

{"smiles": "CC(=O)N[C@@H]1C(=O)N2CCC[C@H]2C(=O)N(C)[C@H](CC(C)C)C(=O)N(C)[C@@H](CC(C)C)C(=O)N(C)[C@@H](CC(C)C)C(=O)N(C)[C@H](CC(C)C)C(=O)N(C)[C@H](C)C(=O)N[C@@H](CC(C)C)C(=O)N2CCC[C@@H]2C(=O)O[C@@H]1C", "PAMPA (10^-6 cm/s)": "7.9"}
{"smiles": "CC(=O)N1CCC[C@@H]1C(=O)N(C)[C@@H](CC(C)C)C(=O)N[C@@H]1C(=O)N(C)[C@H](CC(C)C)C(=O)N(C)[C@@H](CC(C)C)C(=O)N(C)[C@H](CC(C)C)C(=O)N[C@@H](C)C(=O)N[C@@H](CC(C)C)C(=O)N2CCC[C@@H]2C(=O)O[C@@H]1C", "PAMPA (10^-6 cm/s)": "7.2"}

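The data file gives no further conditions (lipid, pH, time, direction or concentration), and values from different papers need not be comparable. Other peptides of the study may be missing here. Entries at the database's floor value (log10 P of -10) are not listed.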